In patent US10463688B2, “Nylon-3 polymers active against Clostridium difficile” (priority 2015, dated 2019):

Test system: C. difficile vegetative cells (R20291 strain)
Details: MH broth, 24 h at 37° C., anaerobic

For CC[C@H](C)[C@H](NC(=O)[C@H](CCCCN)NC(=O)[C@H](CCC(=O)O)NC(=O)[C@H](CCCCN)NC(=O)[C@H](CO)NC(=O)[C@H](CCCCN)NC(=O)[C@H](CCCNC(=N)N)NC(=O)[C@H](Cc1ccccc1)NC(=O)[C@H](Cc1ccccc1)NC(=O)[C@H](CC(=O)O)NC(=O)CNC(=O)[C@H](CC(C)C)NC(=O)[C@@H](N)CC(C)C)C(=O)NCC(=O)N[C@@H](CCCCN)C(=O)N[C@@H](CCC(=O)O)C(=O)N[C@@H](Cc1ccccc1)C(=O)N[C@@H](CCCCN)C(=O)N[C@@H](CCCNC(=N)N)C(=O)N[C@H](C(=O)N[C@H](C(=O)N[C@@H](CCC(N)=O)C(=O)N[C@@H](CCCNC(=N)N)C(=O)N[C@H](C(=O)N[C@@H](CCCCN)C(=O)N[C@@H](CC(=O)O)C(=O)N[C@@H](Cc1ccccc1)C(=O)N[C@@H](CC(C)C)C(=O)N[C@@H](CCCNC(=N)N)C(=O)N[C@@H](CC(N)=O)C(=O)N[C@@H](CC(C)C)C(=O)N[C@H](C(=O)N1CCC[C@H]1C(=O)N[C@@H](CCCNC(=N)N)C(=O)N[C@H](C(=O)N[C@@H](CCC(=O)O)C(=O)N[C@@H](CO)C(=O)O)[C@@H](C)O)C(C)C)[C@@H](C)CC)C(C)C)[C@@H](C)CC [LL-37], the “MIC, minimum inhibitory concentration for vegetative cell growth” value was 10 µg/mL.
